What was measured:
[1] = molecular target: DFP-inhibited acetylcholinesterase (AChE) (Electrophorus electricus, UniProt O42275); experiment: Reactivation of DFP-inhibited AChE; conditions: for kobs of reactivation of DFP-inhibited AChE / reactivation level, % of the initial AChE activity: 0.4 mM oxime; for rate constant kobs of reactivation (FIG. 5B legend): 0.4 mM oxime in 50 mM phosphate pH 7.4, 22° C.; for reactivation level, % of the initial AChE activity: after 24 hours
[2] = Determination of polymer pKa (spectrophotometric); conditions: OD345/OD280, 50 mM Tris-HCl, pH 7.4-10.3

Sequences of proteins named here, by UniProt entry; tags and fusion partners are left off. A change or cut given only in a name is not applied to a line headed by its entry.
UniProt O42275: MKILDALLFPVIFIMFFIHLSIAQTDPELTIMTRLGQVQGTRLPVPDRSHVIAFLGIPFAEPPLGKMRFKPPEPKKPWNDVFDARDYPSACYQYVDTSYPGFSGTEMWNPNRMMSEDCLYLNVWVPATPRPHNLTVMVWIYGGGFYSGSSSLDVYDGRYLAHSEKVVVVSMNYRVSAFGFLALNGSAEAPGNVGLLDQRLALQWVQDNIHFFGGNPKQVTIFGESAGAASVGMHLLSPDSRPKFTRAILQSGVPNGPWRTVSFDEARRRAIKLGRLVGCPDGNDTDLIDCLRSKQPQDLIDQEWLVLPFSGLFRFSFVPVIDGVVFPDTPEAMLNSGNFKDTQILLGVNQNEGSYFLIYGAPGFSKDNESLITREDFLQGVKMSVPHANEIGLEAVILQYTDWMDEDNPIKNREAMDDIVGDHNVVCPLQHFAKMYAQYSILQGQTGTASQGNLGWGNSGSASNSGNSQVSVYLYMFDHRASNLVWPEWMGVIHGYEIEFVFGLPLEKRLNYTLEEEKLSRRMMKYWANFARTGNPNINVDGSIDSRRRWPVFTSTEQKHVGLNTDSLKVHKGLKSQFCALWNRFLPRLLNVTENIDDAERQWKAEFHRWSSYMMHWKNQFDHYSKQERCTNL

| Substance | kobs of reactivation of DFP-inhibited AChE [1] [min⁻¹] | rate constant kobs of reactivation (FIG. 5B legend) [1] [min⁻¹] | reactivation level, % of the initial AChE activity [1] [%] | pKa [2] |
| --- | --- | --- | --- | --- |
| 4-PAM iodide | 0.0034 | 0.0027 | 70 | – |
| N-hydroxy propyl 4-PAM bromide | – | – | – | 8.23 |
| N-hydroxy propyl 4-PAM iodide | – | – | – | 8.36 |
| N-hydroxyethyl 4-pyridinium aldoxime bromide | 0.0027 | 0.0034 | 70 | 8.2 |

Reference: US20130058910A1, “DECONTAMINATION OF CHEMICAL AND BIOLOGICAL AGENTS” (published 2013)
